These are literature values, as cited in patent US10562850B2, “Human plasma kallikrein inhibitors” (priority 2015, dated 2020).

The data set deals with lipopolysaccharide (LPS)- or bacterial-induced sepsis in animals. The conditions noted are these: cited from earlier work.

Turning to “H-D-Pro-Phe-Arg-chloromethylketone [H-D-Pro-Phe-Arg-chloromethylketone (CMK)]”, the “vascular permeability in multiple organs and lesions” value was “reduce vascular permeability in multiple organs and reduce lesions”.
